This is an account of results in ChEMBL document CHEMBL5725429, “P2X7 modulators” (2017).

Protein sequences, listed by entry. Tags and fused reporters are not part of them. Lines headed by an entry give the natural chain unless they say otherwise; changes in a name come on top.
UniProt Q99572: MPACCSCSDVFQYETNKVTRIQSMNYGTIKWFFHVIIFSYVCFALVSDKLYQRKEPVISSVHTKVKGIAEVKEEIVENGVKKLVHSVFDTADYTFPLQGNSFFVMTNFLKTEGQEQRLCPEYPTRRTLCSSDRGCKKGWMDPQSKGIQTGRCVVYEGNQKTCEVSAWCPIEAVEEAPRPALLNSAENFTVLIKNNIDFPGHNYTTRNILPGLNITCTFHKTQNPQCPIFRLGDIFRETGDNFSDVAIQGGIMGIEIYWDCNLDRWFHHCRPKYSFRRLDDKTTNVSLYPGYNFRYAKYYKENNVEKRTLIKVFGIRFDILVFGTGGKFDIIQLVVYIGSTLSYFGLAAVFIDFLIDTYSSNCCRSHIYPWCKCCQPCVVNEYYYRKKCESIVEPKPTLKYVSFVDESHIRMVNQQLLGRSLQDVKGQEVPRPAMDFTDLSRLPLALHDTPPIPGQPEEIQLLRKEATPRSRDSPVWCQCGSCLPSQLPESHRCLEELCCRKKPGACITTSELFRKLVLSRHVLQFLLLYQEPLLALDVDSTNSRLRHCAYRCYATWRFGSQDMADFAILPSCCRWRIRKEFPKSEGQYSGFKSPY

Each structure is given as a SMILES string.

Test [1] deals with T1, P2X purinoceptor 7 (Rattus norvegicus, UniProt Q64663).
T1 sequence (Q64663 whole entry): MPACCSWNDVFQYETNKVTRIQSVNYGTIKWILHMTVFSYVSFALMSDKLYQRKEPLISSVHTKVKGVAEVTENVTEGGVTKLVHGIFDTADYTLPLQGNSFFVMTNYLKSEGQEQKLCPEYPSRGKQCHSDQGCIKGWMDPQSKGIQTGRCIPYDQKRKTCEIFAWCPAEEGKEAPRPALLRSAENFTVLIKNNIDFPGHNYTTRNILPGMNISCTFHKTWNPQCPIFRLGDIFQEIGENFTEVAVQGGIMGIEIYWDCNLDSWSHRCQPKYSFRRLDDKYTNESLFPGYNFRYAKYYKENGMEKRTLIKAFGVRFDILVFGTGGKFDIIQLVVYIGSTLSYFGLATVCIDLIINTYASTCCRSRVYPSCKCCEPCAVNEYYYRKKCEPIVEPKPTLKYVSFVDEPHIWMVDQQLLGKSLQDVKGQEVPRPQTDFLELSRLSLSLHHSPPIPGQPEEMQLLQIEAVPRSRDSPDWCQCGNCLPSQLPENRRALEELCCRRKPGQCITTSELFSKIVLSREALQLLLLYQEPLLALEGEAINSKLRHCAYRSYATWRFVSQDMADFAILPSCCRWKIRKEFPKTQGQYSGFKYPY
In words: (§1) Ca2+ Flux Assay: 1321N1 cells expressing the recombinant human or rat P2X7 channel was cultured in HyQ DME/(HyClone/Dulbecco's Modified Eagle Medium) high glucose supplemented with 10% Fetal Bovine Serum (FBS) and appropriate selection marker. Cells were seeded at a density of 25000 cells/well (96-well clear bottom black walled plates) in 100 μl volume/well. On the day of the experiment, cell plates were washed with assay buffer, containing (in mM): 130 NaCl, 2 KCl, 1 CaCl2, 1 MgCl2, 10 HEPES, 5 glucose; pH 7.40 and 300 mOs. After the wash, cells were loaded with the Calcium-4 dye (Molecular Device) and incubated in the dark for 60 minutes. Test compounds were prepared at 250× the test concentration in neat DMSO. Intermediate 96-well compound plates were prepared by transferring 1.2 μL of the compound into 300 μL of assay buffer. A further 3× dilution occurred when transferring 50 μL/well of the compound plate to 100 μL/well in the cell plate. Cells were incubated with test compounds and dye for 30 minutes. Calcium dye fluorescence was monitored in FLIPR as the cells were challenged by adding 50 μL/well of BzATP (final concentration is 250 μM BzATP (human and rat)). It is filed as cell-based. For orientation: A change in cytosolic calcium serves as a functional read-out for many receptors and channels.

The target in test [2] is P2X purinoceptor 7 (Homo sapiens, UniProt Q99572). The test is described as §1. It is filed as cell-based.

For orientation: Ki means a measure of affinity in units of concentration, obtained from inhibition or displacement.

Turning to `O=C(c1cccc(C(F)(F)F)c1Cl)N1[C@@H]2CCC[C@H]1c1nnc(-c3ccc(F)cc3)n1C2` (single isomer, unassigned), the Ki in test [1] and in test [2] was 13 nM in each case.

On to `Cc1cccc(-c2nnc3n2C[C@H]2CCC[C@@H]3N2C(=O)c2cccc(C(F)(F)F)c2Cl)n1` (single isomer, unassigned), for which the Ki in test [2] is 5 nM.
